Experimental data from patent US9169270B2, “1-phenyl-substituted heterocyclyl derivatives and their use as prostaglandin D2 receptor modulators” (Actelion Pharmaceuticals Ltd., priority 2012, dated 2015).

By UniProt entry, the sequences of proteins in these tests, tags left out. Where a name states a change or a piece, a line headed by the entry shows the natural chain unless it says otherwise.
UniProt Q9Y5Y4: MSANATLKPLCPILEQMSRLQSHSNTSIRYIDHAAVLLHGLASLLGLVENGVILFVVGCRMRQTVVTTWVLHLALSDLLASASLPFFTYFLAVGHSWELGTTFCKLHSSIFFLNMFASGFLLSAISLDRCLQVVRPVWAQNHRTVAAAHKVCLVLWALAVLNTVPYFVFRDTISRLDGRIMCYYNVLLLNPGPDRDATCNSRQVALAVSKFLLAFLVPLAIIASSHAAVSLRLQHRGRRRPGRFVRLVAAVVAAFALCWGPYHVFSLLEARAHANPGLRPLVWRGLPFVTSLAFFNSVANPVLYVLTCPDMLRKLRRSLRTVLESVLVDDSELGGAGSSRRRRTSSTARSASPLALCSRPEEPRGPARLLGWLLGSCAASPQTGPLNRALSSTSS

Each compound was assayed against hCRTH2 receptor (Homo sapiens (Human), UniProt Q9Y5Y4) (assay: hCRTH2 receptor membranes radioligand (3H-PGD2) displacement assay). Details: hCRTH2 membrane fragments, Binding-Buffer with 0.1% BSA.
Method: Biological Assays: Preparation of hCRTH2 Receptor Membranes and Radioligand Displacement Assay:
First, recombinant HEK293-hCRTH2 cells were detached from culture plates into 5 ml buffer A/plate (Buffer A: 5 mM Tris, 1 mM MgCl2-6H2O pH=7.4) using a rubber policeman. Cells were then transferred into centrifugation tubes and centrifuged for 5 min at 400 g. The cell pellet was resuspended in the same buffer and tubes were frozen at −80° C. Cells were thawed and membrane fragments were generated by homogenization using a polytron homogenizer (30 seconds). The membrane fragments were then centrifuged at 3000 g for 20 minutes and resuspended in buffer C (Buffer C: 75 mM Tris, 25 mM MgCl2, 250 mM Saccharose pH 7.4). Aliquots of membrane fragments were stored at −20° C.
Binding assay was performed in a final assay volume of 250 μl. First, 25 μl of test compound, previously diluted in Binding-Buffer (Binding-Buffer: 50 mM Tris-Base, 100 mM NaCl, 1 mM EDTA, 0.1% BSA (protease free), 0.01% NaN3, 10 mM MnCl2, pH 7.0) was placed into each well. After addition of 75 μl Binding-Buffer, 50 μl of the radioligand ^3H-PGD2 (at 2.5 nM (220.000 dpm/well) from ANAWA ART0662) was added to each well. Binding assay was started by addition of 100 μl CRTH2 membrane fragments, reaching a final concentration of 20 μg/well. For non-specific binding, PGD2 was added to the reaction mixture to […] final concentration. This assay mix was incubated for 90 minutes at room temperature and then filtered through a GF/C filter 96-well plate which was pre-soaked for 3 hours in 0.5% polyethyleneimine (PEI). The filter-wells were washed three times with ice cold Binding-Buffer. Then, 40 μl of Microscint-40 (Packard) was added to each well and the retained radioactivity quantified in a Topcount (Packard).

SMILES	IC50
Cc1noc(C)c1CCC(=O)N1CCc2ncsc2C1c1cc(Cl)ccc1OCC(=O)O (racemic) [Example 42, (±)-(4-Chloro-2-{5-[3-(3,5-dimethyl-isoxazol-4-yl)-propionyl]-4,5,6,7-tetrahydro-thiazolo[5,4-c]pyridin-4-yl}-phenoxy)-acetic acid]	945 nM
Nc1nc2c(s1)C(c1cc(Cl)ccc1OCC(=O)O)N(C(=O)OCc1ccccc1)CC2 (racemic) [Example 17, (±)-2-Amino-4-(2-carboxymethoxy-5-chloro-phenyl)-6,7-dihydro-4H-thiazolo[5,4-c]pyridine-5-carboxylic acid benzyl ester]	2.2 nM
O=C(O)COc1ccc(Cl)cc1C1c2scnc2CCN1C(=O)C1CC1 (racemic) [Example 43, (±)-[4-Chloro-2-(5-cyclopropanecarbonyl-4,5,6,7-tetrahydro-thiazolo[5,4-c]pyridin-4-yl)-phenoxy]-acetic acid]	472 nM
O=C(O)COc1ccc(Cl)cc1C1c2scnc2CCN1C(=O)CCn1ncc2ccccc21 (racemic) [Example 33, (±)-{4-Chloro-2-[5-(3-indazol-1-yl-propionyl)-4,5,6,7-tetrahydro-thiazolo[5,4-c]pyridin-4-yl]-phenoxy}-acetic acid]	18 nM
O=C(O)COc1ccc(Cl)cc1[C@@H]1c2scnc2CCN1C(=O)[C@H]1C[C@@H]1c1ccccc1 [Example 6, {4-Chloro-2-[(R)-5-((1S,2S)-2-phenyl-cyclopropanecarbonyl)-4,5,6,7-tetrahydro-thiazolo[5,4-c]pyridin-4-yl]-phenoxy}-acetic acid]	871 nM
Cn1cc(CCC(=O)N2CCc3ncsc3C2c2cc(Cl)ccc2OCC(=O)O)c2ccccc21 (racemic) [Example 28, (±)-(4-Chloro-2-{5-[3-(1-methyl-1H-indol-3-yl)-propionyl]-4,5,6,7-tetrahydro-thiazolo[5,4-c]pyridin-4-yl}-phenoxy)-acetic acid]	15.7 nM
O=C(O)COc1ccc(Cl)cc1[C@@H]1c2scnc2CCN1C(=O)OCc1ccc(F)cc1F [Example 59, (R)-4-(2-Carboxymethoxy-5-chloro-phenyl)-6,7-dihydro-4H-thiazolo[5,4-c]pyridine-5-carboxylic acid 2,4-difluoro-benzyl ester]	0.4 nM
O=C(O)COc1ccc(Cl)cc1C1c2scnc2CCN1C(=O)NCc1ccccc1 (racemic) [Example 4, (±)-[2-(5-Benzylcarbamoyl-4,5,6,7-tetrahydro-thiazolo[5,4-c]pyridin-4-yl)-4-chloro-phenoxy]-acetic acid]	62 nM
O=C(O)COc1ccc(Cl)cc1[C@@H]1c2scnc2CCN1C(=O)[C@@H]1C[C@H]1c1ccccc1 [Example 5, {4-Chloro-2-[(R)-5-((1R,2R)-2-phenyl-cyclopropanecarbonyl)-4,5,6,7-tetrahydro-thiazolo[5,4-c]pyridin-4-yl]-phenoxy}-acetic acid]	2.5 nM
O=C(O)COc1ccc(Cl)cc1C1c2scnc2CCN1C(=O)/C=C/c1ccc(F)cc1 (racemic) [Example 55, (±)-(4-Chloro-2-{5-[(E)-3-(4-fluoro-phenyl)-acryloyl]-4,5,6,7-tetrahydro-thiazolo[5,4-c]pyridin-4-yl}-phenoxy)-acetic acid]	21.7 nM
O=C(O)COc1ccc(Cl)cc1C1c2scnc2CCN1C(=O)CCN1CCCc2ccccc21 (racemic) [Example 53, (±)-{4-Chloro-2-[5-(3-3,4-dihydro-2H-quinolin-1-yl-propionyl)-4,5,6,7-tetrahydro-thiazolo[5,4-c]pyridin-4-yl]-phenoxy}-acetic acid]	14.4 nM

Results, then the compound that gave them:

IC50	SMILES
7 nM	O=C(O)COc1ccc(Cl)cc1C1c2scnc2CCN1C(=O)OCc1cccc(Cl)c1 (racemic) [Example 85, (±)-4-(2-Carboxymethoxy-5-chloro-phenyl)-6,7-dihydro-4H-thiazolo[5,4-c]pyridine-5-carboxylic acid 3-chloro-benzyl ester]
204 nM	CN(C)c1nc2c(s1)C(c1cc(Cl)ccc1OCC(=O)O)N(C(=O)OCc1ccccc1)CC2 (racemic) [Example 117, (±)-4-(2-Carboxymethoxy-5-chloro-phenyl)-2-dimethylamino-6,7-dihydro-4H-thiazolo[5,4-c]pyridine-5-carboxylic acid benzyl ester]
9.5 nM	COc1ccccc1CNC(=S)N1CCc2ncsc2C1c1cc(Cl)ccc1OCC(=O)O (racemic) [Example 110, (±)-{4-Chloro-2-[5-(2-methoxy-benzylthiocarbamoyl)-4,5,6,7-tetrahydro-thiazolo[5,4-c]pyridin-4-yl]-phenoxy}-acetic acid]
0.2 nM	O=C(O)COc1ccc(Cl)cc1[C@@H]1c2scnc2CCN1C(=O)OCc1cccc(F)c1 [Example 76, (R)-4-(2-Carboxymethoxy-5-chloro-phenyl)-6,7-dihydro-4H-thiazolo[5,4-c]pyridine-5-carboxylic acid 3-fluoro-benzyl ester]
0.3 nM	O=C(O)COc1ccc(Cl)cc1[C@@H]1c2scnc2CCN1C(=O)OCc1c(F)cccc1F [Example 73, (R)-4-(2-Carboxymethoxy-5-chloro-phenyl)-6,7-dihydro-4H-thiazolo[5,4-c]pyridine-5-carboxylic acid 2,6-difluoro-benzyl ester]
0.7 nM	O=C(O)COc1ccc(Cl)cc1[C@@H]1c2scnc2CCN1C(=O)OCC1CCCCC1 [Example 66, (R)-4-(2-Carboxymethoxy-5-chloro-phenyl)-6,7-dihydro-4H-thiazolo[5,4-c]pyridine-5-carboxylic acid cyclohexylmethyl ester]
8.7 nM	O=C(O)COc1ccc(Cl)cc1C1c2scnc2CCN1C(=O)OCc1c(Cl)cccc1Cl (racemic) [Example 87, (±)-4-(2-Carboxymethoxy-5-chloro-phenyl)-6,7-dihydro-4H-thiazolo[5,4-c]pyridine-5-carboxylic acid 2,6-dichloro-benzyl ester]
5.5 nM	COc1ccccc1CNC(=O)N1CCc2ncsc2C1c1cc(Cl)ccc1OCC(=O)O (racemic) [Example 109, (±)-{4-Chloro-2-[5-(2-methoxy-benzylcarbamoyl)-4,5,6,7-tetrahydro-thiazolo[5,4-c]pyridin-4-yl]-phenoxy}-acetic acid]
2.3 nM	O=C(O)COc1ccc(Cl)cc1[C@@H]1c2scnc2CCN1C(=O)OCc1ccccc1 [Example 103, (R)-4-(2-Carboxymethoxy-5-chloro-phenyl)-6,7-dihydro-4H-thiazolo[5,4-c]pyridine-5-carboxylic acid benzyl ester]
32.2 nM	O=C(O)COc1ccc(Cl)cc1C1c2scnc2CCN1C(=O)OCc1cnccn1 (racemic) [Example 95, (±)-4-(2-Carboxymethoxy-5-chloro-phenyl)-6,7-dihydro-4H-thiazolo[5,4-c]pyridine-5-carboxylic acid pyrazin-2-ylmethyl ester]
0.5 nM	O=C(O)COc1ccc(Cl)cc1[C@@H]1c2scnc2CCN1C(=O)OCc1cc(Cl)ccc1F [Example 68, (R)-4-(2-Carboxymethoxy-5-chloro-phenyl)-6,7-dihydro-4H-thiazolo[5,4-c]pyridine-5-carboxylic acid 5-chloro-2-fluoro-benzyl ester]
286 nM	O=C(O)COc1ccc(Cl)cc1[C@H]1c2scnc2CCN1C(=O)OCc1ccccc1 [Example 104, (S)-4-(2-Carboxymethoxy-5-chloro-phenyl)-6,7-dihydro-4H-thiazolo[5,4-c]pyridine-5-carboxylic acid benzyl ester]
